Reference: patent publication US6951881B2, “(1-substituted-indol-3-yl) alkylidenehydrazinecarboximidamide derivatives as 5-hydroxytryptamine-6 ligands” (Wyeth, priority 2002, dated 2005)

Amino acid sequences for entries named in this document (tags omitted).
UniProt P50406, whole entry: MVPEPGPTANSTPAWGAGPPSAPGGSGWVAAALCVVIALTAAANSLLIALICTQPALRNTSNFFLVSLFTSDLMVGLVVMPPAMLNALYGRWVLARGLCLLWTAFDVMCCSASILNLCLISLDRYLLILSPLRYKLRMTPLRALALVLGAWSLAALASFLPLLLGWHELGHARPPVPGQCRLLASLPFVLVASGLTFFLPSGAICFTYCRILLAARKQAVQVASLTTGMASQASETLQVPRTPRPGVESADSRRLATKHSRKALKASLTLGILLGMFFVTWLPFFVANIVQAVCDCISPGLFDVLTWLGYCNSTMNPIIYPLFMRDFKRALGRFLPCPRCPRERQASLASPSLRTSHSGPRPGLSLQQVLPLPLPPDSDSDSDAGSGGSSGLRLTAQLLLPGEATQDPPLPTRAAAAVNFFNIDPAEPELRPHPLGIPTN

Target: human cloned 5-HT6 receptors (Homo sapiens, UniProt P50406)
Type: binding
Settings: for Ki: read-out: 5-HT6 Binding Ki, [3H]-LSD 3.0 nM, Hela cell membranes; for % Inhibition: test compound dose 1000 nM, displacement of [3H]-LSD
Protocol: This operation is repeated.
The reaction is allowed to proceed in the dark for 120 min at room temperature, at which time, the bound ligand-receptor complex is filtered off on a 96 well unifilter with a Packard Filtermate® 196 Harvester. The bound complex caught on the filter disk is allowed to air dry and the radioactivity is measured in a Packard TopCount® equipped with six photomultiplier detectors, after the addition of 40.0 μl Microscint®-20 scintillant to each shallow well. The unifilter plate is heat-sealed and counted in a PackardTopCount® with a tritium efficiency of 31.0%.
Specific binding to the 5-HT6 receptor is defined as the total radioactivity bound less the amount bound in the presence of 10.0 μM unlabeled methiothepin. Binding in the presence of varying concentrations of test compound is expressed as a percentage of specific binding in the absence of test compound. The results are plotted as logit % bound versus log concentration of test compound. Nonlinear regression analysis of data points with a computer assisted program Prism® yields both the IC50 and the Ki values of test compounds with 95% confidence limits.
The amount of displacement by the test compound is given in percent (%) inhibition and is derived from the following equation: [formula] where B0 is the amount of CPM bound in the presence of the testing agent. NSB represents the CPM bound in the presence of a saturating concentration of a displacer and TB represents the total amount of CPM bound at zero (0) concentration of test compound.
Alternatively, a linear regression line of decline of data points is plotted, from which the IC50 value can be read off and the Ki value determined by solving the following equation: [formula] where L is the concentration of the radioactive ligand used and KD is the dissociation constant of the ligand for the receptor, both expressed in nM.

SMILES	Ki [nM]	% Inhibition [%]
CC(=NNC(=N)N)c1c[nH]c2ccc(NS(=O)(=O)c3cc(Cl)c(Cl)s3)cc12	1	99.0
CC(=NNC(=N)N)c1cn(C)c2ccc(NS(=O)(=O)c3ccc(Br)s3)cc12	2	99.0
CC(=NNC(=N)N)c1cn(C)c2ccc(NS(=O)(=O)c3ccc(Br)cc3)cc12	3	99.2
